# In US8088886B2, “Lipoprotein associated phospholipase A2, inhibitors thereof and use of the same in diagnosis and therapy” (Smith-Kline Beecham P.L.C., priority 1993, dated 2012):
# The chains behind the UniProt entries cited, without tags or fusion partners. Residues count along the entry.
# UniProt Q13093, 22-441 limits assumed: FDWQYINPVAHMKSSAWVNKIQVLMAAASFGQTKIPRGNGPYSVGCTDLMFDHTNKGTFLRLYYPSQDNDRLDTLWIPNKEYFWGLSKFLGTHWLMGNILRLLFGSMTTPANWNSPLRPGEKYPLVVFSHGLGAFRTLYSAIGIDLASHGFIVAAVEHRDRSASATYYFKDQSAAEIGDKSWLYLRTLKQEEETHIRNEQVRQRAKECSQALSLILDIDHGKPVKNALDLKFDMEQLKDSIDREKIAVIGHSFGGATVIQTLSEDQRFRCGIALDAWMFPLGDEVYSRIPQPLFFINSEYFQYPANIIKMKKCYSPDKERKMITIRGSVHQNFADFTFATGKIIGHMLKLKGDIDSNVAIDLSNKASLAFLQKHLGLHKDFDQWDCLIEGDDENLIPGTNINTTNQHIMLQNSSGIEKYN
# How the values were obtained:
# [1] = target: Lp-PLA2 (Homo sapiens, UniProt Q13093); test: Screen for Lp-PLA2 inhibition (turnover of artificial substrate (A), absorbance at 405 nm); details: 37° C., pH 7.4, 10 min pre-incubation, 20 μM substrate (A); tested form: drawn as phosphate monoanion, counter-io
# Method: 1. Screen for Lp-PLA2 Inhibition.
# Enzyme activity was determined by measuring the rate of turnover of the artificial substrate (A) at 37° C. in 50 mM HEPES (N-2-hydroxyethylpiperazine-N′-2-ethanesulphonic acid) buffer containing 150 mM NaCl, pH 7.4.
# Assays were performed in 96 well titre plates.
# Lp-PLA2 was pre-incubated at 37° C. with vehicle or test compound for 10 min in a total volume of 180 μl. The reaction was then initiated by the addition of 20 μl 10× substrate (A) to give a final substrate concentration of 20 μM. The reaction was followed at 405 nm for 20 minutes using a plate reader with automatic mixing. The rate of reaction was measured as the rate of change of absorbance.
# [2] = target: human LDL (Homo sapiens, UniProt Q13093); test: Inhibition of Cu2+ stimulated lyso-phosphatidylcholine (lyso-PtdCho) formation in LDL; details: read-out: IC50 for inhibition of LDL lyso-PtdCho accumulation stimulated by copper ions; human LDL 0.25 mg protein/ml, 15 min pre-incubation at 37° C., 5 μM Cu2+; tested form: drawn as phosphate monoanion, counter-io
# Method: 3. Inhibition of Cu^2+ Stimulated lyso-phosphatidylcholine (lyso-PtdCho) Formation.
# A 1 ml aliquot of human LDL (0.25 mg protein/ml) was incubated for 15 min at 37° C. with compound or vehicle. 5 μM Cu^2+ was then added to allow oxidation/lyso-PtdCho formation to occur. The incubation was terminated by the addition of 3.75 ml chloroform/methanol/c HCl (200:400:5, v/v/v). Following the addition of 1.25 ml chloroform and 1.25 ml 0.1M HCl, the mixture was vortexed and centrifuged. The lower phase was carefully removed and the upper phase re-extracted with an equal volume of synthetic lower phase. The extracts were pooled and dried under nitrogen.
# Phospholipids were reconstituted into 50 μl chloroform/methanol (2:1 v/v). 10 μl aliquots were spotted on to pre-run silica gel HPTLC plates and then developed in chloroform/methanol 25-30% methylamine (60:20:5 v/v/v). Plates were subsequently sprayed with the flourescent indicator, 2-p-toluidinylnaphthalene-6-sulphonic acid (1 mM in 50 mM Trs/HCl, pH 7.4) to identify phospholipid components. Fluorescence was measured at 222 nm using a CAMAG TLC scanner. Lipoprotein lyso-PtdCho content was quantified using a standard curve (0.05-0.5 μg) prepared in parallel.
# [3] = test system: LDL; test: Copper stimulated LDL oxidation (conjugate diene formation, absorption at 234 nm); details: copper (5 μM)-stimulated LDL (150 μg/ml), absorbance at 234 nm vs control vehicle, FIG. 1; tested form: drawn as phosphate monoanion, counter-io
# Method: 2. Copper Stimulated LDL Oxidation:
# Copper stimulated oxidation of LDL is routinely measured by following the increase in conjugate diene formation by monitoring the change in absorption at 234 nm. This assay can be used to study inhibitors of oxidative modification of LDL.
# FIG. 1 is a graph of absorbance at 234 nm against time (min) in a study of inhibition of copper (5 μM)-stimulated LDL (150 μg/ml) oxidation by compound 4 vs control vehicle.
Structure (SMILES),IC50 [1] [nM],IC50 [2] [nM],inhibition of LDL oxidation (lag phase of conjugate diene formation) [3]
CCCCCCCCCCCCCCCCCCOC[C@H](COP(=O)(O)OCCO)NC(C)=O,450,,
CCCCCCCCCCCCCCCCCCOC[C@H](COP(=O)(O)OCCOC(C)=O)NC(C)=O,200,,
CCCCCCCCCCCCCCCCCCOC[C@H](COP(=O)(O)OCCSC)NC(C)=O,80,30000,prolongation of the lag phase
